## Binding of CDR-mutated scFvs to a peptide of the spike HR2 region

The measurements come from Engelhart et al. 2022 (doi:10.1038/s41597-022-01779-4) through the FLAb antibody collection.

Binding partner: SARS-CoV-2 spike HR2 peptide, sequence PDVDLGDISGINAS.

Parent: Ab-95, a human scFv built as VH, a (GGGGS)3 linker, VL. Only the CDRs of the light chain vary.
VH: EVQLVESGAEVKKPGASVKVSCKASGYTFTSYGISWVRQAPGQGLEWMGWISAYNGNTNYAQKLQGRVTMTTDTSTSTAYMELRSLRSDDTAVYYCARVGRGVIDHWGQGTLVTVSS
VL: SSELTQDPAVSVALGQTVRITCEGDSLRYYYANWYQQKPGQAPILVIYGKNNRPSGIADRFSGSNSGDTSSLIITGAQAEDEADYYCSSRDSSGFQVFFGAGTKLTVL

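The starting antibody came from a phage panning campaign against this peptide. In library AAYL52, one, two or three CDR residues were substituted; doubles and triples were drawn at random. The assay is AlphaSeq: two haploid yeast populations carry antibody and antigen on their surface. After mating in shaken culture at 30 °C for 16 h, diploids were selected and their barcode pairs sequenced. Scores were corrected for input abundance and mapped to Kd with protein pairs of known affinity run in the same pool. Each pool was mated in three replicate cultures.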

Variants are written as CDR1, CDR2 and CDR3 of the light chain (limits as in the source). Parent: EGDSLRYYYAN, GKNNRPS, SSRDSSGFQVF.
Affinities are written as log10 Kd with Kd in nM; a lower number is a better binder.
Replicates are averaged; those with no signal do not enter the mean.
"no signal" means that the variant was in the library but no mating with the target was seen in any replicate; the authors take this as a sign of poor binding, and no number exists.
For reference, the parent read 2.31 as the reference entry and 2.25 as a member of this library.

CDR-L1,CDR-L2,CDR-L3,"mean, log10 nM",seen in,signal with controls
EGDSQRHYYAN,GKNNRPS,SSRDSSGFQVF,3.09,3 of 3,1 of 9
EGDSLRYIYAN,GKNNRPS,SVRDHSGFQVF,2.57,3 of 3,1 of 9
EGDSLRYYYSN,GKNNRPS,SSRDSLAFQVF,2.86,3 of 3,1 of 9
EGDYLRYYYAN,GKNNRPP,SERDSSGFQVF,4.77,1 of 3,5 of 9
EGDSKSYYYAN,GKNNRPS,SSHDSSGFQVF,3.24,3 of 3,3 of 9
RGDSLRYIYAN,GKNNRPS,SSRDSSGAQVF,3.01,3 of 3,4 of 9
EGDSLRYYMAN,GKNNRPS,SSRDSTGFQVF,1.42,3 of 3,5 of 9
EGDSLRPYYAN,GKNNRPS,SSRDNAGFQVF,no signal,0 of 3,1 of 9
EGDSLRYYYAN,GKNNAPS,NSADSSGFQVF,3.45,2 of 3,2 of 9
EGDSLRRYYAN,GSNNRPS,SSRDSSGFQVF,1.83,3 of 3,5 of 9
EGDSRRYYYAN,GKNNRPS,SSRDSCGVQVF,3.89,2 of 3,6 of 9
ITDSLRYYYAN,GKNNRPS,SSRDSSGFAVF,3.77,1 of 3,3 of 9
EGDSLRYCMAN,QKNNRPS,SSRDSSGFQVF,3.22,3 of 3,5 of 9
EGDSLRYYSAN,GVNNRPS,SSRDSMGFQVF,3.08,2 of 3,2 of 9
EGDSLRYYYAS,GKNNRPS,SSKDSSGFQVF,3.98,3 of 3,1 of 9
EGDSLPRYYAY,GKNNRPS,SSRDSSGFQVF,3.62,3 of 3,5 of 9
EGDSIRYYYAN,GKLARPS,SSRDSSGFQVF,no signal,0 of 3,2 of 9
EPDSLRYYYAC,GKNNRPS,SSRDSAGFQVF,3.80,2 of 3,2 of 9
EGDSLRYYYAN,GKNRRPS,SSSDSSGYQVF,3.82,2 of 3,5 of 9
EYDSLRYYYAN,GKNNRPS,SSRDSSPFQVF,3.97,3 of 3,1 of 9
EGDSLRYEYAN,GKNNRPS,SSRGSSGFDVF,1.05,3 of 3,1 of 9
EGDSRQYYYAN,GKANRPS,SSRDSSGFQVF,no signal,0 of 3,0 of 9
EGDSLRYYYMN,GKNRRPS,SSRDSSGFQVI,no signal,0 of 3,5 of 9
EPDWLRYYYAN,GKNNRPP,SSRDSSGFQVF,4.43,3 of 3,4 of 9
EGDSLRYYYQD,GKNNRPS,SSTDSSGFQVF,no signal,0 of 3,2 of 9
EGDSLRYYYAN,GKNNRPS,SSTDSSGFCVM,4.55,1 of 3,1 of 9
EGDSLRYYYAN,GKNNRWW,SSRDSSGFQNF,4.20,2 of 3,4 of 9
EGDSLRYYYAN,GKNNRPS,SSHSSSGFHVF,3.67,2 of 3,0 of 9
EGDSLRYVYPN,GKNNRPS,SSYDSSGFQVF,3.95,3 of 3,3 of 9
ETDSLRYYYVN,GKNNRPS,SSRCSSGFQVF,4.03,2 of 3,2 of 9
GGDSLRYYQAN,AKNNRPS,SSRDSSGFQVF,2.02,3 of 3,4 of 9
EGDSLRYYWAN,GKNNRPS,SSRDASGHQVF,3.98,1 of 3,0 of 9
EGDVLRYYYAN,GKNNRPQ,SSMDSSGFQVF,3.91,1 of 3,2 of 9
EPDSLRYYYAN,GKNNRLS,SSRDSSGIQVF,4.14,2 of 3,3 of 9
EGDSLRYYIAN,GDNNRPS,SSRDSSSFQVF,2.80,3 of 3,7 of 9
EGDSLRYYYAN,MKNNRPF,SSRDSSGFQHF,3.54,1 of 3,3 of 9
EGDSLRSYYAN,GKNNRPS,SSRDSVGFQSF,2.29,3 of 3,4 of 9
EGDVLRYPYAL,GKNNRPS,SSRDSSGFQVF,4.59,2 of 3,6 of 9
EGYSLRYYYAN,GKNNRPS,SSKDSSGFQWF,no signal,0 of 3,2 of 9
EGDSLRYYYAN,GKNNRPS,SSRDGSGFHHF,3.58,2 of 3,0 of 9
EGDSLRYPQAN,GKNNRPS,SSRDSSGFQRF,1.42,3 of 3,2 of 9
EGDSLRYFYFN,GKNYRPS,SSRDSSGFQVF,1.15,3 of 3,5 of 9
EGDSLRYYYAN,GKNNGPK,SSRDSSGFQCF,3.98,2 of 3,4 of 9
EGDSLRYYYAK,GKNNRPS,RSADSSGFQVF,5.56,1 of 3,5 of 9
EGDSLRYYYAN,GKNNRPL,SHRDSSGEQVF,3.49,3 of 3,2 of 9
EGDLLEYYYAT,GKNNRPS,SSRDSSGFQVF,3.34,1 of 3,2 of 9
EGDSLRYYYAN,GKNNRFS,SSTDSSTFQVF,no signal,0 of 3,0 of 9
EGDSLSYYYAN,GKNNRPY,SFRDSSGFQVF,2.31,3 of 3,2 of 9
EGQSLRVYYAN,FKNNRPS,SSRDSSGFQVF,no signal,0 of 3,2 of 9
EGDSLRYYRAN,GPNNRPS,SSRDSSIFQVF,2.00,3 of 3,2 of 9
EGDSLRYYYCN,GKNNRPS,SARDYSGFQVF,3.08,3 of 3,3 of 9
EGDSLRYGYAN,GKNNRPS,SSYDSSGFQVF,0.71,3 of 3,4 of 9
EGDSLRYYYAF,GKENRPS,SSRDSSSFQVF,no signal,0 of 3,3 of 9
EGHSLRYYYAN,GKNNRPS,SSRDSSGFQEF,3.42,2 of 3,3 of 9
EGDSLRYYYAN,GKNNRPS,SSTDSDGFQVF,2.45,3 of 3,3 of 9

For reference, 6 entries of the list once more:

CDR-L1,CDR-L2,CDR-L3,"mean, log10 nM",seen in,signal with controls
EGDVLRYPYAL,GKNNRPS,SSRDSSGFQVF,4.59,2 of 3,6 of 9
EGDSLRYYYAN,GKNNRFS,SSTDSSTFQVF,no signal,0 of 3,0 of 9
EGDSLRYYYCN,GKNNRPS,SARDYSGFQVF,3.08,3 of 3,3 of 9
EGDSLRYYYAS,GKNNRPS,SSKDSSGFQVF,3.98,3 of 3,1 of 9
EGDSIRYYYAN,GKLARPS,SSRDSSGFQVF,no signal,0 of 3,2 of 9
ITDSLRYYYAN,GKNNRPS,SSRDSSGFAVF,3.77,1 of 3,3 of 9

As a blank, each scFv also met three strains without target: over library AAYL52, 28% of these pairings were detected, typically at 3.91 and seldom below 2.90. Also given: how often the same scFv was detected with the empty control strains.